# Test results: patent US20120322768A1, “COMPOUNDS, COMPOSITIONS AND METHODS FOR TREATING PROTOZOAN INFECTIONS” (QUEEN MARY & WESTFIELD COLLEGE, priority 2009, published 2012)
# Columns and labels:
# T. brucei NTR (TbNTR) = target: T1, T. brucei NTR (TbNTR) (Trypanosoma brucei, UniProt Q57XU3); experiment: TbNTR enzyme activity by NADH oxidation (absorbance at 340 nm); type: biochemical
# T1 sequence (Q57XU3 85-320 limits assumed): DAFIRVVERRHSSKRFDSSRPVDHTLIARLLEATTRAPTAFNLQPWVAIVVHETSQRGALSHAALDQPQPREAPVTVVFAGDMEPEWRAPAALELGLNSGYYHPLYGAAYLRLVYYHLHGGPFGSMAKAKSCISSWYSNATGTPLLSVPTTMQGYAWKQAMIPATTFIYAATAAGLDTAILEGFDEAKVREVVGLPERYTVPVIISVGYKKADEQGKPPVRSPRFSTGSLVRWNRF
# Description: A DNA fragment encoding for the catalytic domain of T. brucei NTR (TbNTR) was amplified from genomic DNA with the primers ggatcc[…] and gaattc[…]; lower-case italics correspond to restriction sites incorporated into the primers to facilitate cloning. The fragment was digested with BamHI/HindIII then cloned into the corresponding sites of the vector pTrcHis-C (Invitrogen). A 2 litre E. coli BL-21+ pTrcHis-TbNTR culture was grown at 37° C. for 2 hours with aeration. Protein expression was then induced by IPTG, the culture incubated overnight at 16° C. and the cells harvested by centrifugation. […] The elution steps were carried out in the presence of 0.5% Triton X-100 and protease inhibitors (Roche). Fractions were analysed by SDS-PAGE and protein concentrations determined by BCA protein assay system (Pierce).
# Enzyme activity was measured by following the change in absorbance at 340 nm due to NADH oxidation (34, 35). A reaction mixture (1 ml) containing 50 mM Tris-Cl pH 7.0, 100 μM NADH and NBPM (Tables 1 and 2) was incubated at room temperature for 5 min. The background rate of NADH oxidation was determined and the reaction initiated by the addition of 20 μg TbNTR. The enzyme activity was calculated using c of 6,220 M^−1 cm^−1. The absorbance spectrum (320-600 nm) for each NBPM was determined before. At the concentration ranges used no significant signal was detected at 340 nm for any of the drugs tested.
# [1] = test system: bloodstream form T. brucei; type: cell-based
Compound,Activity (Vmax) (T. brucei NTR (TbNTR)),IC50 fold lower than nifurtimox [1] [fold]
NP(=O)(OCc1ccc([N+](=O)[O-])cc1)N(CCCl)CCCl (stereo not drawn) [LH7],245.0 ± 34.5 nmol NADH oxidized min^−1mg^−1,
"NP(=O)(OCc1ccc([N+](=O)[O-])cc1F)N(CCCl)CCCl (stereo not drawn) [LH32, 2-Fluoro-4-nitrobenzyl phosphoramide mustard]",832 ± 9 nmol NADH oxidized min^−1mg^−1,
"NP(=O)(OCc1ccc([N+](=O)[O-])cc1C(F)(F)F)N(CCCl)CCCl (stereo not drawn) [LH33, 2-Trifluoromethyl-4-nitrobenzyl phosphoramide mustard]",654 ± 14 nmol NADH oxidized min^−1mg^−1,
"NP(=O)(OCc1ccc([N+](=O)[O-])cc1Cl)N(CCCl)CCCl (stereo not drawn) [LH34, 2-Chloro-4-nitrobenzyl phosphoramide mustard]",706 ± 27 nmol NADH oxidized min^−1mg^−1,225
"NP(=O)(OCc1c(F)cc([N+](=O)[O-])cc1F)N(CCCl)CCCl (stereo not drawn) [LH37, 2,6-Difluoro-4-nitrobenzyl phosphoramide mustard]",1238 ± 48 nmol NADH oxidized min^−1mg^−1,
